This is an account of results in paper PMC11325555, “Interaction of Bisphenol A and Its Analogs with Estrogen and Androgen Receptor from Atlantic Cod (Gadus morhua)” (Environmental Science & Technology, 2024).

The term IC50 denotes the concentration that inhibits the measured activity by half. For orientation: EC50 means the concentration giving half of the maximal effect.

Where only a bound is given, the exact number is not on record here.

Assay [1] concerns the target T1, Atlantic cod estrogen receptor alpha (gmEra) LBD (Gadus morhua, UniProt U5ILH7).
T1 sequence (U5ILH7 170-455): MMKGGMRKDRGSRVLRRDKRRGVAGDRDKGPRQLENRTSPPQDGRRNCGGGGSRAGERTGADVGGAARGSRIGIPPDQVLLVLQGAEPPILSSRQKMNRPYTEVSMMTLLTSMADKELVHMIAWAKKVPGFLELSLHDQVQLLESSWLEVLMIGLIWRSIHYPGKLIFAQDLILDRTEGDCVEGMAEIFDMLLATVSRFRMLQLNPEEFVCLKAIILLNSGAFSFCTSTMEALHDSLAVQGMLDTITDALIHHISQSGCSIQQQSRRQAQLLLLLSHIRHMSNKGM
Description: Luciferase reporter gene assay, gmEra antagonism (antiestrogenic activity), coexposure with 3 nM EE2. It counts as cell-based. The method, then:
Ligand activation of gmEra and gmAra was studied with a luciferase reporter gene assay in COS-7 cells transiently transfected with the pCMX-GAL4(DBD)-gmEra(LBD) or pCMX-GAL4(DBD)-gmAra(LBD) plasmid by using the TransIT-LT1 reagent (TransIT-LT1 Transfection Reagent, Mirus). Cells were seeded into 96-well plates (5000 cells/well) and incubated for 24 h before cotransfection with the plasmid mixture (100 ng/well). The plasmid mixture contained GAL4-UAS luciferase reporter plasmid (tk-(MH100)x4 luc), the pCMX-GAL4(DBD)-gmEra(LBD) or pCMX-GAL4(DBD)-gmAra(LBD) receptor plasmids (2:1 reporter:receptor plasmid mass ratio), and a plasmid constitutively producing the β-galactosidase enzyme used for normalization of transfection efficiency (pCMV- β-Gal). […] The maximum DMSO/methanol concentrations in the exposure wells were 0.5% (v/v) in DMEM medium without phenol red (Sigma-Aldrich). After exposure, cells were lysed, and luciferase and beta-galactosidase activities were measured as luminescence and absorbance (420 nm) after the addition of luciferin and ONPG substrates, respectively, using an Enspire Multimode plate reader (PerkinElmer, Waltham, Massachusetts, USA). […]

In assay [2] the target is T1, Atlantic cod estrogen receptor alpha (gmEra) LBD. The experiment in a line: Luciferase reporter gene assay, gmEra agonism (estrogenic activity) in transfected COS-7 cells. The following applies: for maximal fold induction: COS-7, monkey, 24 h, read-out: gmEra Emax. As to the method: (§1) Ligand activation of gmEra and gmAra was studied with a luciferase reporter gene assay in COS-7 cells transiently transfected with the pCMX-GAL4(DBD)-gmEra(LBD) or pCMX-GAL4(DBD)-gmAra(LBD) plasmid by using the TransIT-LT1 reagent (TransIT-LT1 Transfection Reagent, Mirus). Cells were seeded into 96-well plates (5000 cells/well) and incubated for 24 h before cotransfection with the plasmid mixture (100 ng/well). The plasmid mixture contained GAL4-UAS luciferase reporter plasmid (tk-(MH100)x4 luc), the pCMX-GAL4(DBD)-gmEra(LBD) or pCMX-GAL4(DBD)-gmAra(LBD) receptor plasmids (2:1 reporter:receptor plasmid mass ratio), and a plasmid constitutively producing the β-galactosidase enzyme used for normalization of transfection efficiency (pCMV- β-Gal). […] The maximum DMSO/methanol concentrations in the exposure wells were 0.5% (v/v) in DMEM medium without phenol red (Sigma-Aldrich). After exposure, cells were lysed, and luciferase and beta-galactosidase activities were measured as luminescence and absorbance (420 nm) after the addition of luciferin and ONPG substrates, respectively, using an Enspire Multimode plate reader (PerkinElmer, Waltham, Massachusetts, USA).
Luciferase reporter gene assays were established with COS-7 cells transiently producing the LBD of gmEra (Figure S1) for evaluating the estrogenic potential of 12 bisphenols.
COS-7 cells transiently transfected with gmEra-LBD were exposed to EE2 (open circles), BPA (black circles), and 11 different BPA analogs (red squares and as indicated) at increasing concentrations. Responses are presented as mean fold activation in luciferase activity in comparison to solvent-exposed cells ± SEM from three independent experiments with three technical replicates (n = 9). The dose–response curves were created using nonlinear regression and the four parameter logistic fit in Graphpad Prism v.9. For comparison, the dose–response curve of BPA (black line) is indicated together with each individual BP tested (red line). *p < 0.05 versus solvent control by one-way ANOVA and Dunnett’s multiple comparison post hoc test.

In assay [3] the target is T2, Atlantic cod androgen receptor alpha (gmAra) LBD (Gadus morhua, UniProt D5FIC7).
T2 sequence (D5FIC7 409-718): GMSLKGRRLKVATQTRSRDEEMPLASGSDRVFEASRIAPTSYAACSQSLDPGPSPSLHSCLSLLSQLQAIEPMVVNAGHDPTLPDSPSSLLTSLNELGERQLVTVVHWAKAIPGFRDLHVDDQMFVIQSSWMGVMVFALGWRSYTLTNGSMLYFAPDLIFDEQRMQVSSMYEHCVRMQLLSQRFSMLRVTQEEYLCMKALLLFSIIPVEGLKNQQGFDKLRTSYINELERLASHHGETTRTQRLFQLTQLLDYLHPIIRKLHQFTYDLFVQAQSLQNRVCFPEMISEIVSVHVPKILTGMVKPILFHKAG
The experiment in a line: Luciferase reporter gene assay, gmAra agonism (androgenic activity) in transfected COS-7 cells. The following applies: COS-7, monkey, 24 h, read-out: gmAra Emax. As to the method: as §1
Figure 3 Androgenic activity of bisphenols. COS-7 cells were transiently transfected with gmAra LBD and exposed individually to 12 bisphenol analogs at increasing concentrations. […]
On the technique in general: Reporter assays use an easily measured gene product as a stand-in for the process of interest.

Take `CC(C)c1cc(C(C)(C)c2ccc(O)c(C(C)C)c2)ccc1O` [BPG]: the IC50 in assay [1] worked out at 1400 nM. Also, the maximal fold induction in assay [2] is around 1.4; in assay [3] it was 0.8. Also, the “gmEra activation, result in words” value in assay [2] (luciferase reporter gene assay) is “did not activate gmEra”.
On to `CC1CC(C)(C)CC(c2ccc(O)cc2)(c2ccc(O)cc2)C1` (stereo not drawn) [BPTMC], for which the IC50 in assay [1] was around 1860 nM. In addition, the maximal fold induction in assay [2] is above 1.5; in assay [3], 1.4. Also, in assay [2] (gmEra EC50, four-parameter logistic fit, 24 h exposure), the EC50 stood at 1280 nM. Also, the “gmEra REP50 (relative potency EC50, EC50-bisphenol A/EC50-bisphenol X)” value in assay [2] (relative to BPA) is recorded as 1.5.
